Assay results: patent US9440982B2 (Eolas Therapeutics, Inc., priority 2012, dated 2016)
Like-named read-outs stand apart in the source and are kept apart here.

Amino acid sequences for entries named in this document (tags omitted).
UniProt O43613, whole entry: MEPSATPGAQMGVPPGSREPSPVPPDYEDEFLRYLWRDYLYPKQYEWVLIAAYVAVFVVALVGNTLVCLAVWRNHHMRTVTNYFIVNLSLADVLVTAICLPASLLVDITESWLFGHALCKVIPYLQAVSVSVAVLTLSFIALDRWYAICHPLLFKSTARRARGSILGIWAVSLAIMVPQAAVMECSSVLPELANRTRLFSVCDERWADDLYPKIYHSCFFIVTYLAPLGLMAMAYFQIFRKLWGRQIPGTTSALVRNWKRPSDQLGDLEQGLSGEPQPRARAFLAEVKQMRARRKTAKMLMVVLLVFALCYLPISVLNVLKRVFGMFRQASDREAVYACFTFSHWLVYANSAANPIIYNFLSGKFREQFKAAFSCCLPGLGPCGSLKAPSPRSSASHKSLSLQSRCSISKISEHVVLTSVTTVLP

Target: T1, OX1 (Homo sapiens, UniProt O43613)
T1 construct: expressed in transfected cells; host or cells: CHO (CHO-OX1, kept under selection antibiotic)
Assay: Orexin receptor cell-based functional assay, [Ca2+]i by FLIPR, CHO-OX1 cells

[1] = Table 2, CHO-OX1 cells, EC90 of OXA, read-out: IC50 Bioactivity OX1
[2] = CHO-OX1 cells, [Ca2+]i by FLIPR, antagonist dose-range 0.1 nM-10 μM, EC90 of OXA, read-out: OX1

| Structure (SMILES) | IC50 [1] | IC50 [2] | other results |
| --- | --- | --- | --- |
| Cc1nc(C(=O)N2CCC[C@@H](C(F)(F)F)[C@H]2CNc2nc3ccccc3o2)c(-c2ccccc2)s1 (racemic) [Example 13, rac-cis-(2-((Benzo[d]oxazol-2-ylamino)methyl)-3-(trifluoromethyl)piperidin-1-yl)(2-methyl-5-phenylthiazol-4-yl)methanone] | 0.009 µM | – | – |
| Cc1nc(C(=O)N2CCC[C@@H](C)[C@H]2CNc2ncc(Br)cn2)c(-c2ccc(F)cc2)s1 (racemic) [Example 15, rac-cis-(2-(((5-Bromopyrimidin-2-yl)amino)methyl)-3-methylpiperidin-1-yl)(5-(4-fluorophenyl)-2-methylthiazol-4-yl)methanone] | 0.001 µM | – | – |
| Cc1nc(C(=O)N2CCC[C@@H](C)[C@H]2CNc2nccc(Cl)n2)c(-c2ccc(F)cc2)s1 (racemic) [Example 20, rac-cis-(2-(((4-Chloropyrimidin-2-yl)amino)methyl)-3-methylpiperidin-1-yl)(5-(4-fluorophenyl)-2-methylthiazol-4-yl)methanone] | 1.3 µM | – | – |
| Cc1cccc(NC[C@@H]2[C@H](C)CCCN2C(=O)c2nc(C)sc2-c2ccc(F)cc2)n1 (racemic) [Example 23, rac-cis-(5-(4-Fluorophenyl)-2-methylthiazol-4-yl)(3-methyl-2-(((6-methylpyridin-2-yl)amino)methyl)piperidin-1-yl)methanone] | 0.06 µM | – | – |
| Cc1nc(C(=O)N2CCC[C@@H](C)[C@H]2CNc2nc3ccccc3o2)c(-c2ccc(F)cc2)s1 (racemic) [Example 24, rac-cis-(2-((Benzo[d]oxazol-2-ylamino)methyl)-3-methylpiperidin-1-yl)(5-(4-fluorophenyl)-2-methylthiazol-4-yl)methanone] | 0.004 µM | – | – |
| Cc1nc(C(=O)N2C(C)CCCC2CNc2ncc(C(F)(F)F)cn2)c(-c2ccc(F)cc2)s1 (racemic) [Example 27, rac-(5-(4-Fluorophenyl)-2-methylthiazol-4-yl)(2-methyl-6-(((5-(trifluoromethyl)pyrimidin-2-yl)amino)methyl)piperidin-1-yl)methanone] | < 0.1 µM | – | – |
| Cc1nc(C(=O)N2C(C)CCCC2CNc2ncc(Cl)cn2)c(-c2ccc(F)cc2)s1 (racemic) [Example 28, rac-(2-(((5-Chloropyrimidin-2-yl)amino)methyl)-6-methylpiperidin-1-yl)(5-(4-fluorophenyl)-2-methylthiazol-4-yl)methanone] | < 0.01 µM | – | – |
| CC[C@@H]1CCCN(C(=O)c2nc(C)sc2-c2ccc(F)cc2)[C@@H]1CNc1nc2ccccc2o1 (racemic) [Example 77, rac-cis-(2-((Benzo[d]oxazol-2-ylamino)methyl)-3-ethylpiperidin-1-yl)(5-(4-fluorophenyl)-2-methylthiazol-4-yl)methanone] | 0.07 µM | – | – |
| Cc1nc(C(=O)N2CCC[C@@H](C)[C@H]2COc2ccc(C(F)(F)F)cn2)c(-c2ccc(F)cc2)s1 (racemic) [Example 79, rac-cis-(3-Methyl-2-(((5-(trifluoromethyl)pyridin-2-yl)oxy)methyl)piperidin-1-yl)(5-(4-fluorophenyl)-2-methylthiazol-4-yl)methanone] | 0.001 µM | – | – |
| CCc1cnc(OC[C@@H]2[C@H](C)CCCN2C(=O)c2nc(C)sc2-c2ccc(F)cc2)nc1 (racemic) [Example 81, rac-cis-(2-(((5-Ethylpyrimidin-2-yl)oxy)methyl)-3-methylpiperidin-1-yl)(5-(4-fluorophenyl)-2-methylthiazol-4-yl)methanone] | < 0.01 µM | – | – |
| Cc1nc(C(=O)N2CCC[C@@H](C)[C@H]2CNc2ccc(F)cn2)c(-c2ccc(F)cc2)s1 (racemic) [Example 85, rac-cis-(2-(((5-Fluoropyridin-2-yl)amino)methyl)-3-methylpiperidin-1-yl)(5-(4-fluorophenyl)-2-methylthiazol-4-yl)methanone] | 0.1 µM | – | – |
| Cc1nc(C(=O)N2CCC[C@H](C)[C@H]2CNc2nc3ccccc3o2)c(-c2ccc(F)cc2)s1 (racemic) [Example 95, rac-trans-(2-((Benzo[d]oxazol-2-ylamino)methyl)-3-methylpiperidin-1-yl)(5-(4-fluorophenyl)-2-methylthiazol-4-yl)methanone] | 0.029 µM | – | – |
| Cc1ccc(-n2nccn2)c(C(=O)N2CCC[C@@H](C)[C@H]2CNc2ncc(Cl)cn2)c1 (racemic) [Example 98, rac-cis-(2-(((5-Chloropyrimidin-2-yl)amino)methyl)-3-methylpiperidin-1-yl)(5-methyl-2-(2H-1,2,3-triazol-2-yl)phenyl)methanone] | 0.006 µM | – | – |
| Cc1ccc(-c2cnn(C)c2)c(C(=O)N2CCC[C@@H](C)[C@H]2CNc2ccc(C(F)(F)F)cn2)c1 (racemic) [Example 103, rac-cis-(3-Methyl-2-(((5-(trifluoromethyl)pyridin-2-yl)amino)methyl)piperidin-1-yl)(5-methyl-2-(1-methyl-1H-pyrazol-4-yl)phenyl)methanone] | 0.004 µM | – | IC50 (Table 6, racemate vs enantiomers, read-out: OX1 IC50): 0.004 µM |
| Cc1ccc(-n2nccn2)c(C(=O)N2CCC[C@@H](C)[C@H]2CNc2ccc(C(F)(F)F)cn2)c1 (racemic) [Example 114, rac-cis-(3-Methyl-2-(((5-(trifluoromethyl)pyridin-2-yl)amino)methyl)piperidin-1-yl)(5-methyl-2-(2H-1,2,3-triazol-2-yl)phenyl)methanone] | 0.003 µM | – | – |
| Cc1ccc(-c2cnn(C)c2)c(C(=O)N2CCC[C@H](C)[C@H]2CNc2ccc(C(F)(F)F)cn2)c1 (racemic) [Example A66, rac-trans-(3-Methyl-2-(((5-(trifluoromethyl)pyridin-2-yl)amino)methyl)piperidin-1-yl)(5-methyl-2-(1-methyl-1H-pyrazol-4-yl)phenyl)methanone] | – | 0.15 µM | – |
| Cc1ccc(-n2nccn2)c(C(=O)N2CCC[C@H](C)[C@H]2CNc2ccc(C(F)(F)F)cn2)c1 (racemic) [Example A67, rac-trans-(3-Methyl-2-(((5-(trifluoromethyl)pyridin-2-yl)amino)methyl)piperidin-1-yl)(5-methyl-2-(2H-1,2,3-triazol-2-yl)phenyl)methanone] | – | 0.006 µM | – |
| O=C(NC[C@@H]1C[C@@H](O)CN1C(=O)c1ccccc1-c1ccccc1)c1cccc2cccnc12 [Example 4, N-(((2S,4R)-1-(Biphenylcarbonyl)-4-hdroxypyrrolidin-2-yl)methyl)quinoline-8-carboxamide] | 0.088 µM | – | – |
| O=C(NC[C@@H]1C[C@H](O)CN1C(=O)c1ccccc1-c1ccccc1)c1cccc2cccnc12 [Example 126, N-(((2S,4S)-1-([1,1′-Biphenyl]-2-carbonyl)-4-hydroxypyrrolidin-2-yl)methyl)quinoline-8-carboxamide] | 0.006 µM | – | – |
| CO[C@H]1C[C@@H](CNC(=O)c2cccc3cccnc23)N(C(=O)c2ccccc2-c2ccccc2)C1 [Example 127, N-(((2S,4S)-1-([1,1′-Biphenyl]-2-carbonyl)-4-methoxypyrrolidin-2-yl)methyl)quinoline-8-carboxamide] | 0.008 µM | – | – |
| CO[C@@H]1C[C@@H](CNC(=O)c2cccc3cccnc23)N(C(=O)c2ccccc2-c2ccccc2)C1 [Example 129, N-(((2S,4R)-1-([1,1′-biphenyl]-2-carbonyl)-4-methoxypyrrolidin-2-yl)methyl)quinoline-8-carboxamide] | 0.12 µM | – | – |
| COc1ncc(-c2ccc(C)cc2C(=O)N2CCC[C@@H](C)[C@H]2CNc2ccc(C(F)(F)F)cn2)cn1 [Example A4, (2-(2-Methoxypyrimidin-5-yl)-5-methylphenyl)((2S,3R)-3-methyl-2-(((5-(trifluoromethyl)pyridin-2-yl)amino)methyl)piperidin-1-yl)methanone] | – | 0.025 µM | – |
| Cc1ccc(-c2cncs2)c(C(=O)N2CCC[C@@H](C)[C@H]2CNc2ccc(C(F)(F)F)cn2)c1 [Example A25, ((2S,3R)-3-Methyl-2-(((5-(trifluoromethyl)pyridin-2-yl)amino)methyl)piperidin-1-yl)(5-methyl-2-(thiazol-5-yl)phenyl)methanone] | – | 0.005 µM | – |
| Cc1ccc(-c2ccccn2)c(C(=O)N2CCC[C@@H](C)[C@H]2CNc2nc3cc(Cl)ccc3o2)c1 [Example A32, ((2S,3R)-2-(((5-Chlorobenzo[d]oxazol-2-yl)amino)methyl)-3-methylpiperidin-1-yl)(5-methyl-2-(pyridin-2-yl)phenyl)methanone] | – | 0.009 µM | – |
| Cc1nc(C(=O)N2CCC[C@H](C)[C@@H]2CNc2nc3ccccc3o2)c(-c2ccc(F)cc2)s1 [Example A42, ((2R,3S)-2-((Benzo[d]oxazol-2-ylamino)methyl)-3-methylpiperidin-1-yl)(5-(4-fluorophenyl)-2-methylthiazol-4-yl)methanone] | – | > 1 µM | – |
| Cc1ccc(-c2cnn(C)c2)c(C(=O)N2CCC[C@@H](C)[C@H]2CNc2ccc(C#N)cn2)c1 [Example A45, 6-((((2S,3R)-3-Methyl-1-(5-methyl-2-(1-methyl-1H-pyrazol-4-yl)benzoyl)piperidin-2-yl)methyl)amino)nicotinonitrile] | – | > 1 µM | – |
| Cc1ccc(NC[C@@H]2[C@H](C)CCCN2C(=O)c2cc(C)ccc2-n2nccn2)nc1 [Example A48, ((2S,3R)-3-Methyl-2-(((5-methylpyridin-2-yl)amino)methyl)piperidin-1-yl)(5-methyl-2-(2H-1,2,3-triazol-2-yl)phenyl)methanone] | – | 0.025 µM | – |
| Cc1ccc(NC[C@@H]2[C@H](C)CCCN2C(=O)c2cc(C)ccc2-n2cnc(C(F)(F)F)n2)nc1 [Example A56, ((2S,3R)-3-Methyl-2-(((5-methylpyridin-2-yl)amino)methyl)piperidin-1-yl)(5-methyl-2-(3-(trifluoromethyl)-1H-1,2,4-triazol-1-yl)phenyl)methanone] | – | > 1 µM | – |
| Cc1ccc(-n2cnc(C(F)(F)F)n2)c(C(=O)N2CCC[C@@H](C)[C@H]2CNc2ccc(F)cn2)c1 [Example A57, ((2S,3R)-2-(((5-Fluoropyridin-2-yl)amino)methyl)-3-methylpiperidin-1-yl)(5-methyl-2-(3-(trifluoromethyl)-1H-1,2,4-triazol-1-yl)phenyl)methanone] | – | > 1 µM | – |
